# Biological target: human RET on cells (MCF7/SRE-Luc; HEK293/hGFRα3/hRET/SRE-Luc; HEK293/hGFRα1/hRET/SRE-Luc) (human) (UniProt P07949)
# Experiment: cell-based or functional assay
substance,measurement,value
H4H8048P (antibody),293/hGFRα3/hRET SRE-luc % Blocking,99%
same,293/hGFRα3/hRET/SRE-Luc IC50,8.3 nM
same,"Internalization (% H4H8087P), HEK293/hGFRa1/hRET/SRE-Luc cells, 37 C",35.4%
same,MCF7/SRE-Luc % Activation,0%
same,MCF7/SRE-Luc Avg % Blocking,82%
same,MCF7/SRE-luc Avg. IC50,> 100 nM

# Source: patent US20220185900A1
